Consider seven compounds from ChEMBL document CHEMBL1148282, “A novel series of piperidin-4-yl-1,3-dihydroindol-2-ones as agonist and antagonist ligands at the nociceptin receptor” (2004).

Sequences of proteins named here, by UniProt entry; tags and fusion partners are left off.
UniProt P41146, whole entry: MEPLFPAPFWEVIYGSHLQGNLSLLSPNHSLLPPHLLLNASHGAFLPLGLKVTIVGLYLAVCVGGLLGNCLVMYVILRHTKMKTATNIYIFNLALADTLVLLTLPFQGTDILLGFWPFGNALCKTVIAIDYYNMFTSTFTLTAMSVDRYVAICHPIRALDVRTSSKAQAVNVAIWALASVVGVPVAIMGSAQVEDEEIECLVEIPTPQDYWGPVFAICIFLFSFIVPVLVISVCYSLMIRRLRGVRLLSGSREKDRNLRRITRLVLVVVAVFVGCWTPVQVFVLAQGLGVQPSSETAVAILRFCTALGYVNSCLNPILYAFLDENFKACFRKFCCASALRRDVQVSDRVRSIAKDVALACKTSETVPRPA
UniProt P35372, whole entry: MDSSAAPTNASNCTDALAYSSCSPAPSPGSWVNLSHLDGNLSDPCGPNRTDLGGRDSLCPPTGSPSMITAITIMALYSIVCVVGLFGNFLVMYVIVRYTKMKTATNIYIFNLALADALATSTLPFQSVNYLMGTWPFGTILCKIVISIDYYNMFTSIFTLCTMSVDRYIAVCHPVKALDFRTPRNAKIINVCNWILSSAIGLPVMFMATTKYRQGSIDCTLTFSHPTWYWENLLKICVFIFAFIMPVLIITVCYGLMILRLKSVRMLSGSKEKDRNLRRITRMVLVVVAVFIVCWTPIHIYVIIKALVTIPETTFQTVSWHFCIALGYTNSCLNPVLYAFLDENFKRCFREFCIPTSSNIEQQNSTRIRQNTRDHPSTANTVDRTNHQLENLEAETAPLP
UniProt P41145, whole entry: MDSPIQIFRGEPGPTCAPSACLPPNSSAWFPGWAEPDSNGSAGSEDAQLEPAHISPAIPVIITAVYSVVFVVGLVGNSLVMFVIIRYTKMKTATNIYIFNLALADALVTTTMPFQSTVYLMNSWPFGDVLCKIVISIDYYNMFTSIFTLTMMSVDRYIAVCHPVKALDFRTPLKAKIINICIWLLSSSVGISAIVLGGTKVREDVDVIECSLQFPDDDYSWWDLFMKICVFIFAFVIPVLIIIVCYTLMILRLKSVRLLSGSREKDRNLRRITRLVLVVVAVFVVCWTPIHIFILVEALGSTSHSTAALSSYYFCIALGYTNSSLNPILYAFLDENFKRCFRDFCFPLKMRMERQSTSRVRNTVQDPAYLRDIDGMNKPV
UniProt P41143, whole entry: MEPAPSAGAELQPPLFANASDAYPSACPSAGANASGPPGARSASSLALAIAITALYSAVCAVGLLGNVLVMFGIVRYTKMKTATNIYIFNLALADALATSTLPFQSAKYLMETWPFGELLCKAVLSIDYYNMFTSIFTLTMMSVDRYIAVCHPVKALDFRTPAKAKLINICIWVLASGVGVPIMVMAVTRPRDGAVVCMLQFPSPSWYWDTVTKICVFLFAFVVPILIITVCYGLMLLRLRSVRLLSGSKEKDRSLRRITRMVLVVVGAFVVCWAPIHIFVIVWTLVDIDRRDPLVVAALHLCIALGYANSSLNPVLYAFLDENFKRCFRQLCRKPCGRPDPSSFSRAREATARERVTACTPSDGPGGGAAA

SMILES strings stand for the structures. Bounds are passed on as bounds.

Assay [1] addresses T1, Nociceptin receptor (Homo sapiens, UniProt P41146). Kind of assay: Concentration required for stimulation of [35S]GTP-gamma-S, binding to human Nociceptin receptor in cell membranes. A general note: GTPγS is a poorly hydrolysed GTP analogue; its binding reports G protein activation.
For the next assay, the target named is Mu-type opioid receptor (Homo sapiens, UniProt P35372). Kind of assay: Binding affinity against human Opioid receptor mu 1 on CHO cell membranes was determined by [3H]DAMGO displacement.
For assay [2], the target named is Kappa-type opioid receptor (Homo sapiens, UniProt P41145). Put plainly: Binding affinity against human Opioid receptor kappa 1 on CHO cell membranes by [3H]U-69593 displacement.
The target of assay [3] is T1, Nociceptin receptor. Put plainly: Binding affinity against human Nociceptin receptor on CHO cell membranes by [3H]N/OFQ displacement.
Assay [4] has as its target Delta-type opioid receptor (Homo sapiens, UniProt P41143). Kind of assay: Binding affinity against human opioid receptor delta 1 transfected on CHO cells was determined using [3H]Cl-DPDPE.
In assay [5] the target is T1, Nociceptin receptor. Put plainly: Concentration required for stimulation of [35S]GTP-gamma-S, binding NOP receptor in cell membranes.

Consider `CC(C)[C@H]1CC[C@@H](N2CCC(N3C(=O)Cc4ccccc43)CC2)CC1`, for which it took 26.3 nM to reach a half-maximal effect at Nociceptin receptor [1] (EC50). Moreover, the inhibition constant (Ki) (as a rule, a dissociation constant, usually derived from enzyme kinetics or from competition with a known ligand) at Mu-type opioid receptor amounted to 8 nM; in assay [2], 148 nM; on Nociceptin receptor [3], 3.96 nM.

In the case of `O=C1Cc2ccccc2N1C1CCN(C2CCC3CCCC[C@@H]3C2)CC1` (some centres not stated), the EC50 (in general, the concentration giving half of the maximal effect) at Nociceptin receptor [1] came to 74.9 nM. For the same compound, the inhibition constant (Ki) stood at 16.4 nM on Mu-type opioid receptor, 137 nM in assay [2] and 4.67 nM at Nociceptin receptor [3].

In turn, `CC(C)[C@H]1CC[C@H](N2CCC(N3C(=O)Cc4ccccc43)CC2)CC1` returned a half-maximal effective concentration (EC50) on Nociceptin receptor [1] of 117 nM. Besides, the inhibitory constant (Ki) is 22.4 nM on Mu-type opioid receptor, 369 nM in assay [2] and 71.2 nM on Nociceptin receptor [3].

Compound `O=C1Cc2ccccc2N1C1CCN(C2C3CCCC2CCC3)CC1` (configuration not stated) returned a Ki in assay [4] of over 10000 nM.

Turning to `CC1(C)C2CCC(CN3CCC(N4C(=O)Cc5ccccc54)CC3)C1C2` (configuration not stated), at Nociceptin receptor [1], the concentration giving a half-maximal response (EC50) was over 10000 nM.

Regarding `CC(c1ccc2c(c1)Cc1ccccc1-2)N1CCC(N2C(=O)Cc3ccccc32)CC1` (configuration not stated), the concentration for a half-maximal effect (EC50) on Nociceptin receptor [1] is over 10000 nM.

In the case of `O=C1Cc2ccccc2N1C1CCN(CC2CCCCCCC2)CC1`, the inhibitory constant (Ki) in assay [4] was over 10000 nM. Also, the EC50 at Nociceptin receptor [5] was over 10000 nM.
